Conditions: mouse tumors, intratumoral injection

Glatiramer acetate [GA]
persistence in tumors: persists in mouse tumors after intratumoral injection
